Results as given in ChEMBL document CHEMBL2331500, “Bioactive flavaglines and other constituents isolated from Aglaia perviridis” (J Nat Prod, 2013).

Protein sequences, listed by entry. Tags and fused reporters are not part of them.
UniProt Q04206, whole entry: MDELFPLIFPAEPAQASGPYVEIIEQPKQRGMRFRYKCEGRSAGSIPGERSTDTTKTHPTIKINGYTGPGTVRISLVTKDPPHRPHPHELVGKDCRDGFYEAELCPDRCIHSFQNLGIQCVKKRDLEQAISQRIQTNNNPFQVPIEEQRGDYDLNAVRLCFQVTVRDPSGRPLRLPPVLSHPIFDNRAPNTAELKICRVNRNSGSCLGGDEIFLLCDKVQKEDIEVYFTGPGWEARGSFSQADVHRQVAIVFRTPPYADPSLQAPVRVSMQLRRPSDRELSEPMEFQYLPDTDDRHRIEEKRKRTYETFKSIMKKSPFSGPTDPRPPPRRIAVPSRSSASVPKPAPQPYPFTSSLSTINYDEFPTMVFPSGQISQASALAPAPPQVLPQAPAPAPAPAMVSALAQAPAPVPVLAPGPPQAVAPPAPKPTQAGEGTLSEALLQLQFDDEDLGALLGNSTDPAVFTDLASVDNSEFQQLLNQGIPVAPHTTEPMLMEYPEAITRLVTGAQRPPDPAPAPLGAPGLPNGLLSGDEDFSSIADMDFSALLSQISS

Target: Transcription factor p65 (Homo sapiens) (UniProt Q04206)
Experiment: Inhibition of NF-kappaB p65 (unknown origin) by ELISA

With `COc1ccc([C@@]23Oc4cc(OC)cc(OC)c4[C@]2(O)[C@H](O)[C@H](C(=O)N(C)C)[C@H]3c2ccccc2)cc1` [ROCAGLAMIDE] the ED50 was 80 nM.
